Source: publication PMC9160101 (Pharmaceutical Research, 2022)
Where two headings read alike, the source gives them in different places.

The chains behind the UniProt entries cited, without tags or fusion partners.
UniProt P11712, whole entry: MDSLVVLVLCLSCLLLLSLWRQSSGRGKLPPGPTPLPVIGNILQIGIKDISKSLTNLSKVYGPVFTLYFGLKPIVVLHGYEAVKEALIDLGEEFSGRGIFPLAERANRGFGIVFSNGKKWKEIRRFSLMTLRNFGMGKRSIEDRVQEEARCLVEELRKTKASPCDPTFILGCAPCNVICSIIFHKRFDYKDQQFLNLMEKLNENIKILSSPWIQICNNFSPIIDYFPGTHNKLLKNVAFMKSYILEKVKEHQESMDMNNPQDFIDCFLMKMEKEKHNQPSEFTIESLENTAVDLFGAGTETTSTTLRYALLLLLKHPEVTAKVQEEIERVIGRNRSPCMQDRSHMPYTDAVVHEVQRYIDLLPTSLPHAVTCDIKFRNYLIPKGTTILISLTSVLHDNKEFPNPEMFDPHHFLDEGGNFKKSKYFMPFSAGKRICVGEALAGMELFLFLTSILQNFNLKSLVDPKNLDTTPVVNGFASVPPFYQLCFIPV
UniProt P33261, whole entry: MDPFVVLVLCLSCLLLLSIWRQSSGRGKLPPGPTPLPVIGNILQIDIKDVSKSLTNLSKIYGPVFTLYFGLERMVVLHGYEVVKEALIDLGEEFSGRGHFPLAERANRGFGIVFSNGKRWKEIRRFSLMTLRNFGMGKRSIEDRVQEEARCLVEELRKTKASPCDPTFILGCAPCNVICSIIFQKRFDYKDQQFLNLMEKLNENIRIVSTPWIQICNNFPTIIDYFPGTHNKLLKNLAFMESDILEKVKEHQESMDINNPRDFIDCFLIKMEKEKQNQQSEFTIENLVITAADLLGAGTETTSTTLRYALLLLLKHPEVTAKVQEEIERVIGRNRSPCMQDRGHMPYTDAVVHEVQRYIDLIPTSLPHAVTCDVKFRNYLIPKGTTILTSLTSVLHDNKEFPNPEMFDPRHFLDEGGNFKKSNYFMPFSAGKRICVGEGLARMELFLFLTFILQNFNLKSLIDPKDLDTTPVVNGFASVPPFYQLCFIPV

How the values were obtained:
human liver homogenates = conditions: ulotaront 10 µM, 240 min
CYP2B6 [1] = conditions: 0.3 to 100 µM, 3 donors, three days
[2] = mouse, in vivo, 10 mg/kg
human OAT3 = target: T1, human OAT3 (Homo sapiens, UniProt Q8TCC7); assay: Transporter inhibition, transfected HEK293 cells; conditions: 50 µM
T1 sequence (Q8TCC7 1-542): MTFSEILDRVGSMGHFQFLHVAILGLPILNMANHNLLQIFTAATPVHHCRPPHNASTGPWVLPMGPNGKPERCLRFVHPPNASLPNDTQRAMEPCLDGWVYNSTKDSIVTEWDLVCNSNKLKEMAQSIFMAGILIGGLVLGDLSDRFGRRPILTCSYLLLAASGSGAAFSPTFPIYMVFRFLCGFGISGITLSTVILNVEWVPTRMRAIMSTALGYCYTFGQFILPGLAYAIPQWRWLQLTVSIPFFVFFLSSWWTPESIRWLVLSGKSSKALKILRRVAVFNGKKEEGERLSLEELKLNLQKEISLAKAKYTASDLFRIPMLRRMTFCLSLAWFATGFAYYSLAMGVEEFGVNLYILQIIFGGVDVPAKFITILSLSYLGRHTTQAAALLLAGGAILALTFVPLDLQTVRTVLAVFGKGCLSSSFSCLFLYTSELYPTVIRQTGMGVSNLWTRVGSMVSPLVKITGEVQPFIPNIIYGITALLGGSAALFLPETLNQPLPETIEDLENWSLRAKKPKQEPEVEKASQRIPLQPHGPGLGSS

human MATE1 = target: T2, human MATE1 (Homo sapiens, UniProt Q96FL8); assay: Transporter inhibition, transfected HEK293 cells; conditions: 50 µM
T2 sequence (Q96FL8 1-570): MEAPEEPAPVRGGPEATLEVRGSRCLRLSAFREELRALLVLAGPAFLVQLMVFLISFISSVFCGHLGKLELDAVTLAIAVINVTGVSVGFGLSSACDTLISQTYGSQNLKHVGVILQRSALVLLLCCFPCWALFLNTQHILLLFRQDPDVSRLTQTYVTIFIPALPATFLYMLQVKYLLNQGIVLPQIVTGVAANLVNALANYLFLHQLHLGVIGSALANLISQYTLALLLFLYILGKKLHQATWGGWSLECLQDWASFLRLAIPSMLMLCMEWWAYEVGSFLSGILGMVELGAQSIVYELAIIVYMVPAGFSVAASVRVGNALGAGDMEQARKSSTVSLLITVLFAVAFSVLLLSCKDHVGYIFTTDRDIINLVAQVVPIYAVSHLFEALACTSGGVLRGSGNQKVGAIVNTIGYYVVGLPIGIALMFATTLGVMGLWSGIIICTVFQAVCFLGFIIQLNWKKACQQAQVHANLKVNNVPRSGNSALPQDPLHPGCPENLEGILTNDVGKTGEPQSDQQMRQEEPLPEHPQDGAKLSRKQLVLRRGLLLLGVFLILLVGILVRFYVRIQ

CYP2C9 = CYP2C9 (Homo sapiens, UniProt P11712); assay: CYP inhibition in HLM
CYP2B6 [3] = target: T3, CYP2B6 (Homo sapiens, UniProt P20813); conditions: HLM
T3 sequence (P20813 1-491): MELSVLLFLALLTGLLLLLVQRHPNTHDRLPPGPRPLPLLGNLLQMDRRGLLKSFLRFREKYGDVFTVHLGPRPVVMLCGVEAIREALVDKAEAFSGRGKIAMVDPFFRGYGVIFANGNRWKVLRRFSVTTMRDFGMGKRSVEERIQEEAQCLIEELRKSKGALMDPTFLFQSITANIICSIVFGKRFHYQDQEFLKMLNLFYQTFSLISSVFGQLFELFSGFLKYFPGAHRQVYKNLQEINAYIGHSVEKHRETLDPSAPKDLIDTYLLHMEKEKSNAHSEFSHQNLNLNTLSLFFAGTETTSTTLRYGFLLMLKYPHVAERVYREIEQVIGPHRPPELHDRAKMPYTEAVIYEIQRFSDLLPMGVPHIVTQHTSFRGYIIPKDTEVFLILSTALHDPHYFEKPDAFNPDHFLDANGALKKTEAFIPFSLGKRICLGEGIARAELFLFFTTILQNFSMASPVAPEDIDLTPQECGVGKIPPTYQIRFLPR

CYP2C19 = CYP2C19 (Homo sapiens, UniProt P33261); assay: CYP inhibition in HLM
Caco-2 monolayers = assay: SEP-383103 permeability, Caco-2 monolayer system; assay type: in vitro ADME; conditions: 120 min
Procedure: Transport buffer was Hanks Balanced Salt Solution (HBSS) buffered with 10 mM HEPES (N-[2- Hydroxyethyl] piperazine-N’-[2-ethanesulfonic acid]), pH adjusted to 7.4 with NaOH. Receiver solution was prepared by adding 1% organic solvent to transport buffer. The monolayers were incubated on an orbital shaker at 37 °C, with ambient humidity and CO2 for the duration of the transport assay. Samples were collected after 45, 90, and 120 min incubations and concentrations were determined by liquid chromatography with tandem mass spectrometry (LC–MS/MS). SEP-383103 permeability study was conducted at Covance (Madison, Wisconsin) using the Caco-2 monolayer system. SEP-383103 (1 and 5 µM) was added to the apical and basolateral chambers to determine the permeability in the apical to basolateral (A to B), and basolateral to apical (B to A) directional, respectively. Samples were collected after a 120-min incubation at 37 °C, and concentrations were determined by LC–MS/MS.

CYP1A2 = conditions: 0.3 to 100 µM, 3 donors, three days
[4] = system: broad panel receptor screen; assay: In vitro broad panel receptor screen; conditions: internal data
[5] = 30 min preincubation without and with NADPH

In the case of NCC1OCCc2ccsc21 (centres unmarked) [SEP-363854], the “metabolite formation in presence vs absence of NADPH” value (human liver homogenates) is reported as “predominately formed in the presence of NADPH”.
With O=C(O)[C@@H]1OCCc2ccsc21 [SEP-383103] the time-dependent inhibition (CYP3A4/5) was “did not show direct or time dependent inhibition”, the “induction of mRNA expression or enzymatic activity” value (CYP2B6 [1]) was “did not induce” and the “AUCinf B/P ratio” value ([2]; ip) was 0.03. For the same compound, the “AUCinf B/P ratio” value ([2]; po) was 0.04, the inhibition (human OAT3) was ~ 35% and the inhibition (human MATE1) was ~ 20%. The direct inhibition (CYP2C9; 0.1 to 100 µM) was “did not show direct or time dependent inhibition”, the time-dependent inhibition (CYP2C9; [5]) was “did not show direct or time dependent inhibition” and the direct inhibition (CYP2B6 [3]; 0.1 to 100 µM) was “did not show direct or time dependent inhibition”. For the same compound, the time-dependent inhibition (CYP2B6 [3]; [5]) was “did not show direct or time dependent inhibition”, the direct inhibition (CYP2C19; 0.1 to 100 µM) was “did not show direct or time dependent inhibition” and the time-dependent inhibition (CYP2C19; [5]) was “did not show direct or time dependent inhibition”. For the same compound, the efflux ratio (Caco-2 monolayers; 1 µM) was 1.2, the “mean permeability A-B” value (Caco-2 monolayers; 1 µM) was 2.3 × 10^–6 cm/sec and the “mean permeability B-A” value (Caco-2 monolayers; 1 µM) was 2.7 × 10^–6 cm/sec. The efflux ratio (Caco-2 monolayers; 5 µM) was 1.9, the “mean permeability A-B” value (Caco-2 monolayers; 5 µM) was 1.3 × 10^–6 cm/sec and the “mean permeability B-A” value (Caco-2 monolayers; 5 µM) was 2.4 × 10^–6 cm/sec. The “induction of mRNA expression or enzymatic activity” value (CYP1A2) was “did not induce” and the “activity in broad panel receptor screen” value [4] was “no significant activities”.
For NNCCc1ccccc1 [phenelzine], the “inhibition of SEP-363854 formation” value (human liver homogenates; phenelzine 10 µM, no NADPH) was 20% and the “inhibition of SEP-383103 formation” value (human liver homogenates; phenelzine 10 µM, no NADPH) was 51%.
